Data published in article PMC2832854 (NeuroImage, 2009).
Like-named read-outs stand apart in the source and are kept apart here.

Test system: TSPO
Assay type: in vivo, rhesus monkeys
Settings: for VT % change: blocked vs baseline; for Specific binding (VS): difference in VT at baseline and blocked

## CC[C@@H](C)N([11CH3])C(=O)c1cc2ccccc2c(-c2ccccc2Cl)n1 [[^11C]-(R)-PK 11195]
After blockade with PBR28 5 mg/kg i.v.
  Peak plasma concentration: 23.4 SUV
Average of the four regions
  Specific binding (VS), average: 1.96 mL • cm^−3
baseline
  Peak plasma concentration: 8.82 SUV
cerebellum, baseline
  VT (total distribution volume): 2.60 mL • cm^−3
cerebellum, blocked (PBR28 5 mg/kg i.v.)
  VT (total distribution volume): 1.38 mL • cm^−3
cerebellum
  VT % change: −45%
  Specific binding (VS): 1.22 mL • cm^−3
Frontal cortex, baseline
  VT (total distribution volume): 3.82 mL • cm^−3
Frontal cortex, blocked (PBR28 5 mg/kg i.v.)
  VT (total distribution volume): 1.49 mL • cm^−3
Frontal cortex
  VT % change: −61%
  Specific binding (VS): 2.33 mL • cm^−3
Occipital cortex, baseline
  VT (total distribution volume): 4.56 mL • cm^−3
Occipital cortex, blocked (PBR28 5 mg/kg i.v.)
  VT (total distribution volume): 1.44 mL • cm^−3
Occipital cortex
  VT % change: −64%
  Specific binding (VS): 3.12 mL • cm^−3
Parietal cortex, baseline
  VT (total distribution volume): 2.82 mL • cm^−3
Parietal cortex, blocked (PBR28 5 mg/kg i.v.)
  VT (total distribution volume): 1.65 mL • cm^−3
Parietal cortex
  VT % change: −40%
  Specific binding (VS): 1.17 mL • cm^−3
